# Data reported in patent US11857601B2, “Pharmaceutical composition for cancer treatment comprising fusion protein including IL-2 protein and CD80 protein and anticancer drug” (GI INNOVATION, INC., priority 2020, dated 2024).
# Key:
# [1] = test system: BT-474 cells; assay: mGI-101 and Herceptin in BT-474 xenotransplanted tumor model; type: in vivo, human
# Description: BT-474 cells were purchased from ATCC (USA) and cultured in RPMI1640 medium (Welgene) containing 10% FBS (Gibco) and 1% antibiotic/antifungal agent (Gibco).
# In order to establish a xenotransplanted tumor model for BT-474 cells, it was subcutaneously injected into the left flank of BALB/c nu/nu female mice (7-week-old) by pulling the leather skin of the mice to make a space using a pellet transplant trochar (MP-182, Innovative Research of America, USA) so that it was located under the skin of the left flank.
# A certain period of time after cell inoculation of the tumor grafts of the mice, the tumor volume was measured for animals with no abnormalities in the health condition of the animals, and the subjects were selected so that the average of each group reached less than 60-120 mm^3, and the selected animals were assigned as evenly as possible based on tumor volume and body weight, each group including 10 animals.
# Clinical symptoms such as a disease and a behavioral change were observed once a day during the test period, and deceased animals were identified, and the mice were sacrificed when the tumor size reached a size of 4,000 mm^3.
# The tumor volume before administration of each subject was set as the value measured at the time of grouping.
# All statistical calculations were performed using Prism 8.0 (Graph Pad Software Inc, USA). […]
# [2] = test system: HCT116 cells; assay: Cancer cell killing, GI-101 and Cetuximab, HCT116 with NK cells; type: cell-based, human; conditions: GI-101 100 nM, Cetuximab 68.6 nM, 24 hours
# Description: This experiment was to evaluate the effect of killing cancer cells by treating HCT116 cells (human colon cancer cells) with the test substance GI-101 alone or in combination with Cetuximab substance in an in vitro environment.
# HCT116 cells were purchased from the Korea cell line bank and cultured in McCoy's 5A medium (ATCC) containing 10% FBS (Gibco) and 1% antibiotic/antifungal agent (Gibco). For use in cancer cell killing test, the cells were harvested using trypsin (Gibco), and then suspended in McCoy's 5A medium, and then dead cells and debris were removed using Ficoll (GE Healthcare Life Sciences) solution. The cells suspended in McCoy's 5A medium were carefully layered on ficoll solution. […]
# In order to identify the effect of killing the cells, a CytoTox Green reagent ([…]™ CytoTox Green, Satorius) that binds to the DNA of cells to be killed was prepared in 1 μl per 1 mL of RPMI1640 medium containing 5% human AB serum (Sigma). The prepared medium was used for dilution of the test substance, and the effect of killing the cells could be quantitatively identified by staining the cells to be killed when the test substance was co-cultured with cancer cell lines and PBMCs. […]
Substance,"tumor size ([1]; Herceptin alone, day 25 and day 28)","tumor size compared with the vehicle control ([1]; mGI-101 3 mg/kg i.v. QW: day 28, Herceptin 1 mg/kg i.p. QW: day 14, 18, 21, combination: day 14 to day 28)",level of killing cancer cells [2]
Herceptin: Herceptin (Trastuzumab) [reference compound],tended to be increased rapidly,statistically significant reduction in tumor size,–
Cetuximab: EGFR inhibitor [reference compound],–,–,high level of killing cancer cells
